PubChem BioAssay (NCI)
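Briefly, cells in 96-well plates were exposed to five compound concentrations for 48 h, and endpoints were estimated by linear interpolation. GI50 marks 50% less growth. Definition used: TGI = concentration required for complete inhibition of growth.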

What was measured:
Assay in all cases: NCI-60 cell line screen, 48 h
HL-60(TB) leukemia = tested on: HL-60(TB) leukemia
CAKI-1 renal = tested on: CAKI-1 renal
SR leukemia = tested on: SR leukemia
NCI-H23 lung = tested on: NCI-H23 lung
KM20L2 colon = tested on: KM20L2 colon
HT29 colon = tested on: HT29 colon
TK-10 renal = tested on: TK-10 renal
LOX IMVI melanoma = tested on: LOX IMVI melanoma
UO-31 renal = tested on: UO-31 renal
SN12C renal = tested on: SN12C renal
SF-295 CNS = tested on: SF-295 CNS
DLD-1 colon = tested on: DLD-1 colon
OVCAR-8 ovarian = tested on: OVCAR-8 ovarian
SF-268 CNS = tested on: SF-268 CNS
COLO 205 colon = tested on: COLO 205 colon
HOP-62 NSCLC = tested on: HOP-62 NSCLC
LXFL 529 NSCLC = tested on: LXFL 529 NSCLC
M19-MEL melanoma = tested on: M19-MEL melanoma
CCRF-CEM leukemia = tested on: CCRF-CEM leukemia
M14 melanoma = tested on: M14 melanoma
SK-MEL-2 melanoma = tested on: SK-MEL-2 melanoma
786-0 renal = tested on: 786-0 renal
ACHN renal = tested on: ACHN renal
NCI-H460 lung = tested on: NCI-H460 lung
A549 NSCLC = tested on: A549 NSCLC
UACC-62 melanoma = tested on: UACC-62 melanoma
EKVX NSCLC = tested on: EKVX NSCLC
NCI-H322M lung = tested on: NCI-H322M lung
SK-MEL-5 melanoma = tested on: SK-MEL-5 melanoma
DMS 114 small cell lung = tested on: DMS 114 small cell lung
SK-OV-3 ovarian = tested on: SK-OV-3 ovarian
IGROV1 ovarian = tested on: IGROV1 ovarian
RXF 393 renal = tested on: RXF 393 renal
RXF-631 renal = tested on: RXF-631 renal
MALME-3M melanoma = tested on: MALME-3M melanoma
U251 CNS = tested on: U251 CNS
XF 498 CNS = tested on: XF 498 CNS
HOP-18 NSCLC = tested on: HOP-18 NSCLC
SNB-19 CNS = tested on: SNB-19 CNS
KM12 colon = tested on: KM12 colon
SNB-75 CNS = tested on: SNB-75 CNS
HCC-2998 colon = tested on: HCC-2998 colon
SK-MEL-28 melanoma = tested on: SK-MEL-28 melanoma
MOLT-4 leukemia = tested on: MOLT-4 leukemia
K-562 leukemia = tested on: K-562 leukemia
RPMI-8226 leukemia = tested on: RPMI-8226 leukemia
HCT-116 colon = tested on: HCT-116 colon
SNB-78 CNS = tested on: SNB-78 CNS
SW-620 colon = tested on: SW-620 colon
UACC-257 melanoma = tested on: UACC-257 melanoma
HCT-15 colon = tested on: HCT-15 colon
SF-539 CNS = tested on: SF-539 CNS
OVCAR-5 ovarian = tested on: OVCAR-5 ovarian
OVCAR-3 ovarian = tested on: OVCAR-3 ovarian
NCI-H226 lung = tested on: NCI-H226 lung
OVCAR-4 ovarian = tested on: OVCAR-4 ovarian
HOP-92 NSCLC = tested on: HOP-92 NSCLC
DMS 273 small cell lung = tested on: DMS 273 small cell lung

SMILES: N.N.N.N.N.[Cl-].[Co+3].n1n[n-]c(-c2nn[n-]n2)n1
- GI50 (HL-60(TB) leukemia): > 100 µM
- TGI (HL-60(TB) leukemia): > 100 µM
- GI50 (CAKI-1 renal): > 100 µM
- TGI (CAKI-1 renal): > 100 µM
- GI50 (SR leukemia): > 100 µM
- TGI (SR leukemia): > 100 µM
- GI50 (NCI-H23 lung): > 100 µM
- TGI (NCI-H23 lung): > 100 µM
- GI50 (KM20L2 colon): > 100 µM
- TGI (KM20L2 colon): > 100 µM
- GI50 (HT29 colon): > 100 µM
- TGI (HT29 colon): > 100 µM
- GI50 (TK-10 renal): > 100 µM
- TGI (TK-10 renal): > 100 µM
- GI50 (LOX IMVI melanoma): > 100 µM
- TGI (LOX IMVI melanoma): > 100 µM
- GI50 (UO-31 renal): > 100 µM
- TGI (UO-31 renal): > 100 µM
- GI50 (SN12C renal): > 100 µM
- TGI (SN12C renal): > 100 µM
- GI50 (SF-295 CNS): > 100 µM
- TGI (SF-295 CNS): > 100 µM
- GI50 (DLD-1 colon): > 100 µM
- TGI (DLD-1 colon): > 100 µM
- GI50 (OVCAR-8 ovarian): > 100 µM
- TGI (OVCAR-8 ovarian): > 100 µM
- GI50 (SF-268 CNS): > 100 µM
- TGI (SF-268 CNS): > 100 µM
- GI50 (COLO 205 colon): > 100 µM
- TGI (COLO 205 colon): > 100 µM
- GI50 (HOP-62 NSCLC): > 100 µM
- TGI (HOP-62 NSCLC): > 100 µM
- GI50 (LXFL 529 NSCLC): > 100 µM
- TGI (LXFL 529 NSCLC): > 100 µM
- GI50 (M19-MEL melanoma): > 100 µM
- TGI (M19-MEL melanoma): > 100 µM
- GI50 (CCRF-CEM leukemia): > 100 µM
- TGI (CCRF-CEM leukemia): > 100 µM
- GI50 (M14 melanoma): > 100 µM
- TGI (M14 melanoma): > 100 µM
- GI50 (SK-MEL-2 melanoma): > 100 µM
- TGI (SK-MEL-2 melanoma): > 100 µM
- GI50 (786-0 renal): > 100 µM
- TGI (786-0 renal): > 100 µM
- GI50 (ACHN renal): > 100 µM
- TGI (ACHN renal): > 100 µM
- GI50 (NCI-H460 lung): > 100 µM
- TGI (NCI-H460 lung): > 100 µM
- GI50 (A549 NSCLC): > 100 µM
- TGI (A549 NSCLC): > 100 µM
- GI50 (UACC-62 melanoma): > 100 µM
- TGI (UACC-62 melanoma): > 100 µM
- GI50 (EKVX NSCLC): > 100 µM
- TGI (EKVX NSCLC): > 100 µM
- GI50 (NCI-H322M lung): > 100 µM
- TGI (NCI-H322M lung): > 100 µM
- GI50 (SK-MEL-5 melanoma): > 100 µM
- TGI (SK-MEL-5 melanoma): > 100 µM
- GI50 (DMS 114 small cell lung): > 100 µM
- TGI (DMS 114 small cell lung): > 100 µM
- GI50 (SK-OV-3 ovarian): > 100 µM
- TGI (SK-OV-3 ovarian): > 100 µM
- GI50 (IGROV1 ovarian): > 100 µM
- TGI (IGROV1 ovarian): > 100 µM
- GI50 (RXF 393 renal): > 100 µM
- TGI (RXF 393 renal): > 100 µM
- GI50 (RXF-631 renal): > 100 µM
- TGI (RXF-631 renal): > 100 µM
- GI50 (MALME-3M melanoma): > 100 µM
- TGI (MALME-3M melanoma): > 100 µM
- GI50 (U251 CNS): > 100 µM
- TGI (U251 CNS): > 100 µM
- GI50 (XF 498 CNS): > 100 µM
- TGI (XF 498 CNS): > 100 µM
- GI50 (HOP-18 NSCLC): > 100 µM
- TGI (HOP-18 NSCLC): > 100 µM
- GI50 (SNB-19 CNS): > 100 µM
- TGI (SNB-19 CNS): > 100 µM
- GI50 (KM12 colon): > 100 µM
- TGI (KM12 colon): > 100 µM
- GI50 (SNB-75 CNS): > 100 µM
- TGI (SNB-75 CNS): > 100 µM
- GI50 (HCC-2998 colon): > 100 µM
- TGI (HCC-2998 colon): > 100 µM
- GI50 (SK-MEL-28 melanoma): > 100 µM
- TGI (SK-MEL-28 melanoma): > 100 µM
- GI50 (MOLT-4 leukemia): > 100 µM
- TGI (MOLT-4 leukemia): > 100 µM
- GI50 (K-562 leukemia): > 100 µM
- TGI (K-562 leukemia): > 100 µM
- GI50 (RPMI-8226 leukemia): > 100 µM
- TGI (RPMI-8226 leukemia): > 100 µM
- GI50 (HCT-116 colon): > 100 µM
- TGI (HCT-116 colon): > 100 µM
- GI50 (SNB-78 CNS): > 100 µM
- TGI (SNB-78 CNS): > 100 µM
- GI50 (SW-620 colon): > 100 µM
- TGI (SW-620 colon): > 100 µM
- GI50 (UACC-257 melanoma): > 100 µM
- TGI (UACC-257 melanoma): > 100 µM
- GI50 (HCT-15 colon): > 100 µM
- TGI (HCT-15 colon): > 100 µM
- GI50 (SF-539 CNS): > 100 µM
- TGI (SF-539 CNS): > 100 µM
- GI50 (OVCAR-5 ovarian): > 100 µM
- TGI (OVCAR-5 ovarian): > 100 µM
- GI50 (OVCAR-3 ovarian): > 100 µM
- TGI (OVCAR-3 ovarian): > 100 µM
- GI50 (NCI-H226 lung): > 100 µM
- TGI (NCI-H226 lung): > 100 µM
- GI50 (OVCAR-4 ovarian): > 100 µM
- TGI (OVCAR-4 ovarian): > 100 µM
- GI50 (HOP-92 NSCLC): > 100 µM
- TGI (HOP-92 NSCLC): > 100 µM
- GI50 (DMS 273 small cell lung): > 100 µM
- TGI (DMS 273 small cell lung): > 100 µM
